Literature values, collected in article PMC11990924, “Inhibition of Tyrosinase and Melanogenesis by Carboxylic Acids: Mechanistic Insights and Safety Evaluation” (Molecules, 2025).

Test system: mice
Conditions: cited from earlier work

For `CC(O)C(=O)O` (stereo not shown) [lactic acid], the “oral LD50” value is given as 4875 mg/kg.
